The numbers were not newly measured in patent publication US20220008553A1, “ANTI-ERBB2 ANTIBODY-DRUG CONJUGATE AND COMPOSITION THEREOF, PREPARATION METHOD THEREFOR, AND USE THEREOF” (SICHUAN KELUN-BIOTECH BIOPHARMACEUTICAL CO., LTD., priority 2015, published 2022), which cites them from elsewhere.

For the series, the system named is ErbB2-overexpressing breast cancer. The following applies: patients with immunohistochemistry (IHC) levels above 2+, Cobleigh et al. 1996; cited from earlier work.

In the case of “Trastuzumab: anti-ErbB2 antibody used clinically for ErbB2-overexpressing breast cancer; SEQ ID NO: 1 and 2”, the median response is 9.1 months.
